What was measured:
[1] = tested on: human A375 cell line tumors; assay: A375 primary tumor growth model in nude mice
[2] = tested on: human NSCLC A549-A2 tumor cells; assay: Adoptive transfer of preincubated NK cells in A549-A2 experimental metastasis model; format: in vivo, athymic nude mice; conditions: CTX 200 mg/kg ip days 14, 21; NK cells preincubated with the protein iv days 16, 22 (CTX group: no NK cells)
YAC-1 target cells = assay: Lytic activity of stimulated nude mouse splenocytes (calcein release); format: cell-based; conditions: four days in equivalent molar amounts; YAC-1 targets
[3] = tested on: p53+/HLA-A2.1+ MDA-MB-231 tumor cells; assay: MDA-MB-231 xenograft tumor growth in nude mice; format: in vivo; conditions: compared to PBS; 9 doses i.v.
CD45R+ cells in tumors = assay: Immune cell infiltration into tumors (CD45R immunohistochemistry); format: in vivo, nude mice; conditions: A375 (p53+/HLA.A2.1+) tumor sections

Question: For “rhIL-2: recombinant human IL-2 (Proleukin) [reference compound]”, which “mice that developed tumors” value ([1]; 0.4 mg/kg i.v., 9 doses, tumors established three days) is on record?
Answer: All of the mice

Question: And the “tumor growth following two dosing cycles” value ([1]; 264scTCR/IL-2 0.5 mg/kg daily x4 per cycle, rhIL-2 0.4 mg/kg every 8 hrs for five days per cycle)?
Answer: inhibited tumor growth to a similar degree

Question: What about the “tumor increase during the course of treatment” value ([1]; tumors grown to 200 mm^3, 9 doses i.v.) of the same substance?
Answer: over 4 fold

Question: What about the Median survival [2] of the same substance?
Answer: 67.5 days

Question: And the “lytic activity of stimulated mouse splenocytes” value (YAC-1 target cells)?
Answer: Equivalent levels of lytic activity

Question: And the tumor growth [3]?
Answer: no effect

Question: And the “CD45R-positive cells in A375 tumors” value (CD45R+ cells in tumors)?
Answer: only small CD45R+ cells were observed
